Measurements published in PubChem BioAssay (NCATS).
Where “and” joins values, the source holds several entries; their conditions need not be identical. Equal values may be shown once. This is a selection; strong and weak results do not stand in their true shares. Records with an inconclusive call do not appear. For part of these data: Measured potencies and affinities stand elsewhere. Calls of active or inactive are those of the source. Unless noted, calls follow the shape of the dose curve; as a rule, active = well fitted curve in the direction sought with a large enough effect; inconclusive = small, poorly fitted or top-dose-only effect, or another doubt; inactive = no such curve, though single readings can be large; an effect the other way counts as inactive or inconclusive.

How the values were obtained:
[1] = NFAT Signaling Pathway (AID 444; active = well fitted curve in either direction with a large enough effect, not every such curve was filed as active;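 also: carbachol stimulus at about its EC50 of 1 µM final; % is scaled to controls: 0 for no effect and ±100 for the full control effect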); settings: Jurkat NFAT-bla M1, carbachol, beta-lactamase ratio, 5 h; at 7.69 µM (top of the series) unless noted
[2] = Stat Signaling Pathway (AID 446; active = well fitted curve in either direction with a large enough effect, not every such curve was filed as active;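 also: ME-180 cervical cancer cells given 40 pM IL-6 alongside compound; SIE-controlled beta-lactamase reporter measured as 460/530 nm FRET emission ratio; % is scaled to controls: 0 for no effect and ±100 for the full control effect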); settings: ME-180 SIE beta-lactamase reporter, IL-6 stimulated, 5 h; at 7.69 µM (top of the series) unless noted
Outline: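 ME-180 SIE-bla cells; overnight plating; cpd + IL-6 40 pM, 5 h, 37 C; LiveBLAzer 2.5 h RT; 460/530 nm emission ratio. Normalized to 300 pM IL-6 and 125 nM JAK inhibitor controls.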

[3] = biological target: Mitogen-activated protein kinase 10 (Mus musculus) (UniProt Q61831); experiment: JNK3 AlphaScreen Assay (AID 530; active = well fitted curve in either direction with a large enough effect, not every such curve was filed as active;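 also: kinase came from lysate of stimulated human HepG2 cells; signal reports phosphorylation of biotinylated GST-cJun 1-79 at Ser73 with 10 µM ATP; % is scaled to controls: 0 for no effect and ±100 for the full control effect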); settings: JNK3 lysate, c-Jun phosphorylation; at 11.4 µM (top of the series) unless noted
Outline: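 qHTS format: compounds tested as titrations against IL-1beta/TNF-alpha-activated HepG2 lysate JNK3 with biotin-GST-cJun substrate and 10 uM ATP at room temperature. Loss of anti-phospho-cJun AlphaScreen signal indicates inhibition.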

[4] = biological target: 3',5'-cyclic-AMP phosphodiesterase 4B (Homo sapiens) (UniProt Q07343); experiment: qHTS Assay for Inhibitors of PDE-IV (AID 607; active = well fitted activation curve with a large enough effect in the main read-out, with a control signal flat, not every such curve was filed as active; also: % of control where 0% means no effect); settings: HEK293 ACTOne CNG channel cells, membrane potential fluorescence; at 22.9 µM (top of the series)
Outline: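 ACTOne HEK293 cells carry a modified cAMP-gated CNG channel and express endogenous PDE4; plated 1000 cells/well, compounds up to 22.9 uM final. Membrane-potential dye fluorescence (ex 535/em 590) was read; parental cells received 10 uM forskolin + 100 uM RO 20-1724.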

[5] = biological target: Glucocorticoid receptor (Homo sapiens) (UniProt P04150); experiment: qHTS assay for small molecule agonists of glucocorticoid receptor signaling (AID 588532; active = well fitted curve in the direction sought with a large enough effect in the signal ratio, with a control signal flat; the % refers to the signal ratio;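 also: 100% = dexamethasone at 0.1 µM and 0% = DMSO only wells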); settings: HeLa MMTV-bla, beta-lactamase ratio, agonist, 18 h; stronger effect = higher value
[6] = biological target: Vitamin D3 receptor (Homo sapiens) (UniProt P11473); experiment: qHTS assay for small molecule agonists of vitamin D receptor signaling (AID 588543; calls by dose curve;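 also: 0% = DMSO basal and 100% = reference agonist control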); settings: HEK293T VDR-UAS-bla, beta-lactamase ratio, 16 h; at 76.8 µM (top of the series)
Outline: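 β-lactamase reporter, VDR-UAS-bla HEK293T, agonist mode. Cells plated 5 h at 37 °C, compound titration 16 h at 37 °C, CCF4 dye 2 h RT, ratio 460/530 nm. Hill fit → EC50, efficacy vs 50 nM 1α,25-(OH)2D3.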

[7] = biological target: Retinoic acid receptor RXR-alpha (Homo sapiens) (UniProt P19793); experiment: qHTS assay for small molecule antagonists of retinoid X receptor alpha signaling (AID 588546; active = well fitted inhibition curve with a large enough effect in the signal ratio, with a control signal flat, not every such curve was filed as active; the % refers to the signal ratio;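 also: cells stimulated with 9-cis-retinoic acid as agonist; % is scaled to controls: 0 for no effect and ±100 for the full control effect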); settings: HEK293T RXRa-UAS-bla, beta-lactamase ratio, antagonist mode
Outline: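 Beta-lactamase reporter inhibition, read as CCF4 fluorescence ratio (ex 405, em 460/530 nm) after 2 h at RT. HEK293T UAS-bla cells, 2500/well, were stimulated with 9-cis-RA at 500 or 100 nM final alongside test compound for 18 h at 37 C.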

[8] = qHTS assay for environmental chemicals that activate the Aryl hydrocarbon Receptor (AhR) signaling pathway (AID 651777); settings: 1A2-DRE human hepatoma cells, luciferase, 24 h; stronger effect = higher value; also: % of control where 0% means no effect; nearly all actives have a fitted effect of over 15% in size
Outline: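 Human hepatoma 1A2-DRE cells stably carrying a DRE/CYP1A2 promoter–luciferase reporter, 1,200 cells/well, exposed to compound 24 hr at 37 C. Luciferase read by One-Glo luminescence after 30 min at room temperature; increased signal marks AhR activation.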

[9] = biological target: Peroxisome proliferator-activated receptor alpha (Homo sapiens) (UniProt Q07869); experiment: qHTS assay for small molecule agonists of the peroxisome proliferator-activated receptor alpha (PPARalpha) signaling pathway (AID 651778); settings: PathHunter PPARalpha complementation, chemiluminescence, 6 h; stronger effect = higher value; also: % of control where 0% means no effect
[10] = qHTS assay for small molecule agonists of the antioxidant response element (ARE) signaling pathway measured by Nrf2-dependant transcriptional activity (AID 720636; active = well fitted curve in the direction sought with a large enough effect in the repeat runs; an effect the other way counts as inactive or inconclusive;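 also: HepG2 cells with an ARE-driven luciferase reporter; % of control where 0% means no effect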); settings: ARE-luc HepG2, Nrf2 luciferase reporter, 16 h; at 92.4 µM (top of the series)
[11] = qHTS assay for small molecule agonists of the antioxidant response element (ARE) signaling pathway measured by Nrf2-dependant transcriptional activity - cell viability counter screen (AID 720653; active = well fitted curve in the direction sought with a large enough effect in the repeat runs; an effect the other way counts as inactive or inconclusive; also: % is scaled to controls: 0 for no effect and ±100 for the full control effect); settings: ARE-bla HepG2 viability, CellTiter-Glo ATP luminescence, 16 h; stronger effect = lower value
Outline: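 ARE-bla HepG2 cells treated with compounds for 16 h at 37C; this counter screen measures viability as intracellular ATP by CellTiter-Glo luminescence after 30 min at room temperature.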

[12] = qHTS assay for cell viability of HEK293 cells (AID 743288); settings: ATP luminescence (CellTiter-Glo), 18 h; max response: stronger effect = lower value; also: % is scaled to controls: 0 for no effect and ±100 for the full control effect; nearly all actives have a fitted effect of over 50% in size
Outline: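 Environmental chemicals tested in qHTS format against parental HEK293 cells; 18 h treatment, 37 C; read-out ATP luminescence (CellTiter-Glo), 30 min RT development.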

[13] = biological target: Guanine nucleotide-binding protein G(i) subunit alpha-1 (Homo sapiens) (UniProt P63096); experiment: qHTS Assay for Inhibitors of RGS12 GoLoco Motif Activity (Green Fluorophore) (AID 879); settings: Galphai1/FITC-RGS12 GoLoco peptide, fluorescence polarization; at 57.1 µM (top of the series);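 also: 0% = labeled peptide with Gαi1 and full inhibition = labeled peptide alone without protein; negative values mean loss of peptide binding seen as reduced polarization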
Outline: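 Fluorescence polarization assay: 50 nM Gαi1 with 10 nM FITC-labeled RGS12 GoLoco peptide in 10 mM Tris pH 7.5, 150 mM NaCl, 0.1 mM GDP, 0.05% NP40, 10 min at room temperature with compound.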

[14] = qHTS Assay for Identification of Small Molecule Agonists for Thrombopoietin (TPO) Signaling Pathway (AID 917); settings: TPO signaling pathway reporter cells, agonist qHTS, stimulated with TPO at its EC50; at 38.5 µM (top of the series); also: % is scaled to controls: 0 for no effect and ±100 for the full control effect
[15] = biological target: Pyruvate kinase PKM (Homo sapiens) (UniProt P14618); experiment: qHTS Assay for Activators of Human Muscle Pyruvate Kinase (AID 954; active = well fitted curve in the direction sought with a large enough effect, not every such curve was filed as active;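 also: 0% = uninhibited enzyme and -100% = no enzyme or full thiadiazolimine inhibition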); settings: purified human PKM1 enzyme activity; at 57.5 µM (top of the series)
Outline: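 Luminescence from a luciferase ATP-detection/stop reagent reported PKM2 activity. Reactions contained 0.1 nM purified human enzyme, 0.5 mM PEP, 0.1 mM ADP and 7 mM MgCl2 at pH 7.2, run 1 h at RT.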

[16] = biological target: Alpha-galactosidase A (Homo sapiens) (UniProt P06280); experiment: Counterscreen for Glucocerebrosidase Inhibitors: qHTS Assay for Human alpha-Galactosidase at pH 4.5 (AID 992); settings: purified enzyme, fluorogenic substrate; at 76.9 µM (top of the series); also: 0% is about no effect
Outline: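 Enzyme at 2 nM final was combined with compound (0.7 nM to 77 uM) and 80 uM 4-methylumbelliferyl alpha-D-galactopyranoside in 50 mM citric acid, 0.005% Tween-20, pH 4.5. After 20 min at room temperature, fluorescence was read (Ex 365/Em 440 nm); AC50 came from Hill fits.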

[17] = biological target: alpha-glucosidase (Oryza sativa, rice) (UniProt Q653V4); experiment: Counterscreen for Glucocerebrosidase Inhibitors: qHTS Assay for Rice alpha-Glucosidase at pH 5.0 (AID 997); settings: rice alpha-glucosidase enzyme activity; at 76.9 µM (top of the series);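 also: 0% = full activity with enzyme and -100% = basal without enzyme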
Outline: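 Rice alpha-glucosidase (4 nM final) with 400 uM 4-methylumbelliferyl-alpha-D-glucopyranoside in citrate buffer pH 5.0, 20 min at room temperature, stopped at pH 10; fluorescence 365/440 nm, compounds 0.7 nM–77 uM, AC50 from Hill fits.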

[18] = Cell Proliferation Assay against the TMD8 Cell Line (AID 651645); settings: TMD8 DLBCL cell line proliferation/viability; at 46.1 µM (top of the series);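 also: cells exposed to compound for 48 h before reading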
Outline: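 Luminescent ATP read-out (CellTiter-Glo, 15 min RT) after 48 h compound exposure of log-growing TMD8 cells at 37C; percent activity scaled between DMSO as 100% and 9.2 uM bortezomib final as 0%.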

[19] = Cell Proliferation Assay against the HBL1 Cell Line (AID 651646); settings: HBL1 DLBCL cells; at 46.1 µM (top of the series) unless noted;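 also: cells exposed to compound for 48 h before reading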
Outline: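 HBL1 ABC DLBCL cells, 500/well in RPMI with 5% FBS, treated for 48 h at 37C. Viability read by CellTiter-Glo luminescence, normalized to DMSO as 100% and 9.2 uM bortezomib as 0%.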

[N-]=[N+]=Nc1ccc([As](=O)(O)O)cc1
inactive: activity change, negative = inhibition [1] 16.2% | activity, negative = inhibition [2] -2.09% | activity change, negative = inhibition [3] 1.4% | activation (PDE inhibition) [4] -0.71%

CC(C)OP(=S)(OC(C)C)SCCNS(=O)(=O)c1ccccc1
inactive: activation [5] 7.34% and -3.15% | activation [6] 5.75% and 5.24% | max response [7] -7.89% | activation [8] 4.97% and 3.74% | max response [9] 0.499% and -3.69% | activation [10] -0.915% and -2.25% | max response [11] -19.9% and 8.76% | max response [12] -7.87% and -2.91%

CN(C(=O)Cc1ccc(Cl)c(Cl)c1)[C@@H]1CC[C@@]2(CCCO2)C[C@H]1N1CCCC1
inactive: activity, negative = inhibition [2] -12% [at 38 µM] | activity change, negative = inhibition [3] 12.1% [at 57.1 µM] | activation (PDE inhibition) [4] 0.969% | activity, negative = inhibition [13] -1.7% | activity, positive = activation [14] -21.6% | activity change, negative = inhibition [15] -9.6% | activity change, negative = inhibition [16] -2.65% | activity change, negative = inhibition [17] -4.55%

NS(=O)(=O)Cc1ccc([As](=O)(O)O)cc1
inactive: activity change, negative = inhibition [1] 7.72% | activity, negative = inhibition [2] -6.51% | activity change, negative = inhibition [3] 3.99% | activation (PDE inhibition) [4] -2.63%

O=[N+]([O-])c1ccc(C[As](=O)(O)O)cc1
inactive: activity change, negative = inhibition [1] -5.46% | activity, negative = inhibition [2] 8.63% | activity change, negative = inhibition [3] 1.25% | activation (PDE inhibition) [4] -4.67%

CC(=O)NC(C)c1ccc(Oc2ccc(OC(C)C)cc2)cc1 (stereo not given)
72%: viability (% of control) [18]

C1=CCOCc2cc(ccc2OCCN2CCCC2)Nc2nccc(n2)-c2cccc(c2)OCC1
69.9%: viability, percent of control [19]
